Measurements as given in patent publication US20200354404A1, “PEPTIDOMIMETIC AGENTS, SYNTHESIS AND USES THEREOF” (priority 2019, published 2020).

Settings: iv 1 mg/kg, individual rats

Measured: Plasma concentration

N[C@@H](Cc1ccccc1)C(=O)N[C@@H](CO)C(=O)N[C@@H](CO)C(=O)N[C@@H](CCC(=O)O)C(=O)O [FSSE, reference compound]
BLOQ: 0.017 hr | 0.033 hr | 0.083 hr | 0.167 hr | 0.33 hr | 0.50 hr

Read-outs that look alike come from different tables or passages of the source.
